Laboratory results as given in ChEMBL document CHEMBL1125884, “Synthesis and biochemical studies of 16- or 19-substituted androst-4-enes as aromatase inhibitors” (J Med Chem, 1991).

Sequences of proteins named here, by UniProt entry; tags and fusion partners are left off. A change or cut given only in a name is not applied to a line headed by its entry.
UniProt P11511: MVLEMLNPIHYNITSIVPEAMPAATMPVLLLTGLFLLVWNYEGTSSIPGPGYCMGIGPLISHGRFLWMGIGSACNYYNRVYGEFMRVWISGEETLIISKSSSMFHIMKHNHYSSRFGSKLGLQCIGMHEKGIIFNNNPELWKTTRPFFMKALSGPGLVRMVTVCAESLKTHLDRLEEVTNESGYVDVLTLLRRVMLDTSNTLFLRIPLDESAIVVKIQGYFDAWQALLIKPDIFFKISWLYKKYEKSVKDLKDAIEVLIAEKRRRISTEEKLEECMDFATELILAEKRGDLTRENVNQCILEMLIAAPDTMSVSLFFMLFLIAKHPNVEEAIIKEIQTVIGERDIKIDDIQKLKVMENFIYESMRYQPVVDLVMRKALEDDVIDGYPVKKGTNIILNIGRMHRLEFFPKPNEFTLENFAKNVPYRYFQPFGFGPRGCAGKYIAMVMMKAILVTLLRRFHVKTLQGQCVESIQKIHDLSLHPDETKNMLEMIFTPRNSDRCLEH

Biological target: Aromatase (Homo sapiens, UniProt P11511)

C[C@]12CCCC=C1CC[C@@H]1[C@@H]2CC[C@]2(C)C(=O)CC[C@@H]12
pIC50: 6.28

pIC50: −log10 of the molar value.
